Measurements published in US20190298846A1, “CELL TARGETING CONJUGATES” (LinXis B.V., priority 2016, published 2019).

Conditions: 5 mM solution in water containing 20 mM NaCl, at least 1 year at 4° C.

[Pt(en)(Fe—N-succinyl-(aminomethyl)piperidine desferrioxamine)Cl](TFA) [DFO-Lx]
decomposition upon storage (HPLC): no decomposition
